ChEMBL document CHEMBL1123166, “Design and synthesis of 2-(arylamino)-4(3H)-quinazolinones as novel inhibitors of rat lens aldose reductase” (J Med Chem, 1986)

Molecular target: Aldo-keto reductase family 1 member B1 (Rattus norvegicus, UniProt P07943)
Experiment: Compound was tested for its ability to inhibit crude aldose reductase obtained from rat lens
Summary of the method: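 Crude enzyme prepared from rat lens. Reaction at pH 6.2 in 0.1 M phosphate buffer with 0.104 mM NADPH and 1.5 mM DL-glyceraldehyde as substrate. NADPH consumption followed at 340 nm against a blank lacking substrate. Percent inhibition from rate versus substrate-only control. IC50 from linear regression of log dose-response using at least three concentrations, three replicates each, for compounds exceeding 50% inhibition at 100 μM.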

Work on O=C1NC(=O)[C@@]2(CCOc3ccc(F)cc32)N1 [SORBINIL] yielded an IC50 of 20 nM.
